Target: Acetylcholinesterase (Homo sapiens, UniProt P22303)
Experiment: Inhibition of human recombinant AChE

By UniProt entry, the sequences of proteins in these tests, tags left out. Where a name states a change or a piece, a line headed by the entry shows the natural chain unless it says otherwise.
UniProt P22303: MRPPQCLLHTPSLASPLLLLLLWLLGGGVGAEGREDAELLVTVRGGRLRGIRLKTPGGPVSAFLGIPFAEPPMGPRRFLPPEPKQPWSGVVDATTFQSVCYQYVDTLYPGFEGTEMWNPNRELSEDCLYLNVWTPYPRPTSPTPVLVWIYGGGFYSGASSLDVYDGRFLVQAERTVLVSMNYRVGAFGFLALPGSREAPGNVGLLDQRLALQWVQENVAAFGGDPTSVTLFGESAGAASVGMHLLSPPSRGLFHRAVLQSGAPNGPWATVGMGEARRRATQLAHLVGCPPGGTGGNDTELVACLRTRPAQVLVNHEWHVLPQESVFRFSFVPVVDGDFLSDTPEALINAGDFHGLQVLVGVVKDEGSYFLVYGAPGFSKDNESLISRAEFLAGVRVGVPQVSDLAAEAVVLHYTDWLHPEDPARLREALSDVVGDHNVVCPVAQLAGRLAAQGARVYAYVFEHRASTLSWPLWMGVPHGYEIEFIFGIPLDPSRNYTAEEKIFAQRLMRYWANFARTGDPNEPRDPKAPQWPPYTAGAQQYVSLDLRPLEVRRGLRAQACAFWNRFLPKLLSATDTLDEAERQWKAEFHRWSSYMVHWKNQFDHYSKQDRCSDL

COc1cc2cc(-c3ccc(CN(C)Cc4ccc([N+](=O)[O-])cc4)cc3)c(=O)oc2cc1OC
IC50: 24.6 µM
